This experiment addresses human Cav2.2 (composed of the subunits α1, β3 and α2δ) (Homo sapiens, UniProt Q00975). The experiment can be described thus: FLIPR assay (TSA201 cells stably transfected with human Cav2.2 and human Kir2.3, FLUO-4 Ca2+ signal, KCl depolarization). Particulars: read-out: FLIPR Cav2.2 IC50, 70 mM KCl depolarization, average value, tested form: HCl.

Amino acid sequences for entries named in this document (tags omitted). A change or cut given only in a name is not applied to a line headed by its entry. Residues count along the entry.
UniProt Q00975, whole entry: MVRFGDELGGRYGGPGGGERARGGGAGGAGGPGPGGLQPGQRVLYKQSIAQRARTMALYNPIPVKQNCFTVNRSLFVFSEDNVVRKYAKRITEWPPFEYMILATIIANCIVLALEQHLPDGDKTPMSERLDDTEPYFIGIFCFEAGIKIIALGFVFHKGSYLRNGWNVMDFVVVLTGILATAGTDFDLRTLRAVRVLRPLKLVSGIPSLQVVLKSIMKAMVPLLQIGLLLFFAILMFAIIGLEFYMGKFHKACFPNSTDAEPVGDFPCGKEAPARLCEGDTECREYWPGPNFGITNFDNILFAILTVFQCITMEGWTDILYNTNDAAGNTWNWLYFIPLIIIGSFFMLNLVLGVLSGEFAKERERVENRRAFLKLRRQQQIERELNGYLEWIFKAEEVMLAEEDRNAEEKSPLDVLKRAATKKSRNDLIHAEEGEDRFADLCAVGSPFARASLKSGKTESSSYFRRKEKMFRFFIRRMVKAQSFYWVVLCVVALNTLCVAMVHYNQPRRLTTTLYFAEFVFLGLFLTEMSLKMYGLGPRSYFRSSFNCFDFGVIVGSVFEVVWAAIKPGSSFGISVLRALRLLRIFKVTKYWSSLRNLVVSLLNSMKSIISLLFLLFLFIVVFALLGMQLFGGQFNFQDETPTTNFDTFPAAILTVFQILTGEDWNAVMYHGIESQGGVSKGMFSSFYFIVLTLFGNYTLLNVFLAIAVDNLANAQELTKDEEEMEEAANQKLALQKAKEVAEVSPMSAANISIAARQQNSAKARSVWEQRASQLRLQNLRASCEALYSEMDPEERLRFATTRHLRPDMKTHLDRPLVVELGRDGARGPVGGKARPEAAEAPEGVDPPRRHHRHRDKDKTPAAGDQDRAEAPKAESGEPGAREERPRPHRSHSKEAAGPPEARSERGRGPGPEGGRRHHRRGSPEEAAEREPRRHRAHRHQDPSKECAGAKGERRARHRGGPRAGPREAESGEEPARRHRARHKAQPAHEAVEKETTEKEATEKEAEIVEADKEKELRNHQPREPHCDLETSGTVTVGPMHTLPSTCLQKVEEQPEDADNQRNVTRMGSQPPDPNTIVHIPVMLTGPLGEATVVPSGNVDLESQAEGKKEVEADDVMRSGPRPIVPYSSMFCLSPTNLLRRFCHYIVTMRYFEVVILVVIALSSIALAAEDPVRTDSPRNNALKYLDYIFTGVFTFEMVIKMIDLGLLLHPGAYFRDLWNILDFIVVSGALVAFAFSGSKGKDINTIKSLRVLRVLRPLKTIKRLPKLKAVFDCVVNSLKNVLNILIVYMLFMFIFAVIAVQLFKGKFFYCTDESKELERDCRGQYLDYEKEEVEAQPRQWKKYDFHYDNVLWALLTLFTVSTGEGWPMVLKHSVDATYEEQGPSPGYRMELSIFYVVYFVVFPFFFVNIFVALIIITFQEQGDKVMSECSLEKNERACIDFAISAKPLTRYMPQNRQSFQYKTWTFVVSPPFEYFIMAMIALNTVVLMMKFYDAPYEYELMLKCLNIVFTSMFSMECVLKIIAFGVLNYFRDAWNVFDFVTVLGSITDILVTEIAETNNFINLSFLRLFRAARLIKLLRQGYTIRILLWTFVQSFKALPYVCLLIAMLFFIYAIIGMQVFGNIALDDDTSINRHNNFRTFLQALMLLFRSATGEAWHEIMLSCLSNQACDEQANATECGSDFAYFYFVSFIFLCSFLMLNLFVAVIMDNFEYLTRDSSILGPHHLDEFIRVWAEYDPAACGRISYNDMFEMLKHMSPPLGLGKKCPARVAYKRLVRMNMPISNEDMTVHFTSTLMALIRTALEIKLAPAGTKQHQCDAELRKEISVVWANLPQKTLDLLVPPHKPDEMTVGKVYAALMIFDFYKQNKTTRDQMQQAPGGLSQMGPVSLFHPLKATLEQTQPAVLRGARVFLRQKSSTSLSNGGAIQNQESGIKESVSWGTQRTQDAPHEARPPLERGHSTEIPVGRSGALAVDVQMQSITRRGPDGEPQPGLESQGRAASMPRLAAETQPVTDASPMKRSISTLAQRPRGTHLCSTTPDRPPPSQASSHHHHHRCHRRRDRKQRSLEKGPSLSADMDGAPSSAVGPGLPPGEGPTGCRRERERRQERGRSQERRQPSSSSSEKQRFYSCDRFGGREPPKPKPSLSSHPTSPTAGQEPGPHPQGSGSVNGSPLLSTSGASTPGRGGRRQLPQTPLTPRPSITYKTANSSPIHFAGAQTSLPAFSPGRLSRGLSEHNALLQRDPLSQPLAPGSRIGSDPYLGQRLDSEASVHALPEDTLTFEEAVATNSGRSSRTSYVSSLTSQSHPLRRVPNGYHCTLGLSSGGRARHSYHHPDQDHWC
UniProt P54284, whole entry partner: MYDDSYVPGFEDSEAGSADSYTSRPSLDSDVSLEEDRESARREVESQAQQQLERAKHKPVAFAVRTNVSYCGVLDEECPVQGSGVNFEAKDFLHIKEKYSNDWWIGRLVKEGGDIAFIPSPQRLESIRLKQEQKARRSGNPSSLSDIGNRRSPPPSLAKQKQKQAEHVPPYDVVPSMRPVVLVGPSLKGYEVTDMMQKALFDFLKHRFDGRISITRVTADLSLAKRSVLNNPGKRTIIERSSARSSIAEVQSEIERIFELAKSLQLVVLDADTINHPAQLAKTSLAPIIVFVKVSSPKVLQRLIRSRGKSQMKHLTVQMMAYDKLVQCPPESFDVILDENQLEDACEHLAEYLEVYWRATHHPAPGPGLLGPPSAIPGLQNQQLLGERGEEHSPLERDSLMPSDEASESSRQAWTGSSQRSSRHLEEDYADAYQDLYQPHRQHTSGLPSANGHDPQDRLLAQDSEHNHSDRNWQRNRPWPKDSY
UniProt P54289, 25-946 partner limits assumed: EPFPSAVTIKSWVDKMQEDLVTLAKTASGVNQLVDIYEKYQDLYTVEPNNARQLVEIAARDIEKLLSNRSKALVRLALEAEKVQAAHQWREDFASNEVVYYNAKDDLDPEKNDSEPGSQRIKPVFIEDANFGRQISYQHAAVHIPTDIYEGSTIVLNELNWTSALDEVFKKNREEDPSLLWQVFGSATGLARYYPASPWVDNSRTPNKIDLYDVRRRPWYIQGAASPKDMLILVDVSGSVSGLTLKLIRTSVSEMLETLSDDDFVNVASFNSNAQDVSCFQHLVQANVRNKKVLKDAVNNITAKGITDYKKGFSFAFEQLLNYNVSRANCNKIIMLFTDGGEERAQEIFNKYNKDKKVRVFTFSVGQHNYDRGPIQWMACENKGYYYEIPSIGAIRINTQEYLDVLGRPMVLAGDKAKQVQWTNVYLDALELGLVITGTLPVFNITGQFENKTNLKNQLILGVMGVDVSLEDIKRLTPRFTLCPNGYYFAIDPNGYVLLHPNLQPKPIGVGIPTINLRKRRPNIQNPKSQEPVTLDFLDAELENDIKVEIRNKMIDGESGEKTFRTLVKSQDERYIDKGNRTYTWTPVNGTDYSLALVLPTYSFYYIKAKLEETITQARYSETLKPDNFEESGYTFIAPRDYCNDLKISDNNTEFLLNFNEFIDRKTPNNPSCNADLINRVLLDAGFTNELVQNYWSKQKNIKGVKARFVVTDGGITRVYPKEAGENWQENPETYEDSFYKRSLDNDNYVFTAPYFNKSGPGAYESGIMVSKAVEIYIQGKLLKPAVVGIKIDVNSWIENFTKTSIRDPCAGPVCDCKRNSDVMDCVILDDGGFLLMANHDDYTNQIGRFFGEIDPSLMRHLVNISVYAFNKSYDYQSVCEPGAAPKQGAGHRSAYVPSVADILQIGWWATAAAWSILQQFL
UniProt P54289, 947-1103 partner limits assumed: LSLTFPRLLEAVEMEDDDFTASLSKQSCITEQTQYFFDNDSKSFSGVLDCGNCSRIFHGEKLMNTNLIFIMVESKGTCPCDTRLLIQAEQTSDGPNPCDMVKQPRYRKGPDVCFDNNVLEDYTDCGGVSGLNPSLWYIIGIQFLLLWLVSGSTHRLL

In general, IC50 refers to the concentration needed to halve the response being measured.

As for `CC(C)(C)C(=O)N(Cc1csc(N2CCC3CCCCC3C2)n1)c1ccc(F)cc1` (stereo not shown), the IC50 was determined as 2700 nM.
